Counter-ions that a name gives are not always drawn.
Legend:
TEAD2 = TEAD2 (Homo sapiens (Human), UniProt Q15562);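 further: TR-FRET competition assay with His-tagged TEAD protein and a biotinylated lipid pocket probe, compound pre-incubated 30 min or 4 h at room temperature, displacement lowers signal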
TEAD3 = TEAD3 (Homo sapiens (Human), UniProt Q99594); experiment: TR-FRET lipid pocket probe competition assay (Lipid HTRF), TEAD3; type: binding; details: 4 hours pre-incubation

Sequences of proteins named here, by UniProt entry; tags and fusion partners are left off.
UniProt Q15562, whole entry, species assumed: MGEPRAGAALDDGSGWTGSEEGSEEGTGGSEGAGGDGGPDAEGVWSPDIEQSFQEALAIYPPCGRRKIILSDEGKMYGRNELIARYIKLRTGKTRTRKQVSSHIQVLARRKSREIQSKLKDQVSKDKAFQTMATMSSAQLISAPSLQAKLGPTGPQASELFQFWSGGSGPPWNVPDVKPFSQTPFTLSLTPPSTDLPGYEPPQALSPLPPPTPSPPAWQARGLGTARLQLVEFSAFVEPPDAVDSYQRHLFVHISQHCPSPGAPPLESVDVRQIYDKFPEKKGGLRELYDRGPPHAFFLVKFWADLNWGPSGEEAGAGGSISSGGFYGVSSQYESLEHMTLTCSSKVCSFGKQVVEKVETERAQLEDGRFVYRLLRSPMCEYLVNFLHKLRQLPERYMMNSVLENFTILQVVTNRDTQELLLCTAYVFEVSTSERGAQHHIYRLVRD
UniProt Q99594, whole entry, species assumed: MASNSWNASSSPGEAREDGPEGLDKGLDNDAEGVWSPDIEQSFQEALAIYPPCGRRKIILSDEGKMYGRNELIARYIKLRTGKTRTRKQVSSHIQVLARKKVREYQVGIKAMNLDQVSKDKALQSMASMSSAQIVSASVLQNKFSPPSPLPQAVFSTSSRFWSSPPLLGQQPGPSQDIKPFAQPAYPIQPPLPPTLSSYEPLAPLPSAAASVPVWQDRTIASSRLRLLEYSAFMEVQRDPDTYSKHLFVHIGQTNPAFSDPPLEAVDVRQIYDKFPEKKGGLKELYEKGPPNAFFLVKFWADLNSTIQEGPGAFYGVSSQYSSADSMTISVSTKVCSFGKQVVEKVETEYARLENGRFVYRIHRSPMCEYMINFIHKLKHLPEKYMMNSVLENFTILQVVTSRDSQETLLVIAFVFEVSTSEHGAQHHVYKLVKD

| SMILES | IC50 (TEAD2) [µM] | IC50 (TEAD3) [µM] |
| --- | --- | --- |
| C=C(F)C(=O)N1CC(c2nn(-c3ccc(S(F)(F)(F)(F)F)cc3)c3nccc([C@H](O)CO)c23)C1 [Compound 59, (S)-1-(3-(4-(1,2-dihydroxyethyl)-1-(4-(pentafluoro-λ^6-sulfanyl)phenyl)-1H-pyrazolo[3,4-b]pyridin-3-yl)azetidin-1-yl)-2-fluoroprop-2-en-1-one] | 0.033 |  |
| C=CC(=O)NCc1nn(-c2ccc(OC(F)(F)F)cc2)c2nccc([C@H](O)COC(=O)CN)c12 [Compound 145, (S)-2-(3-(Acrylamidomethyl)-1-(4-(trifluoromethoxy)phenyl)-1H-pyrazolo[3,4-b]pyridin-4-yl)-2-hydroxyethyl 2-aminoacetate formate] |  | 5.5 |
| C=CC(=O)NCc1nn(-c2ccc(OC(F)(F)F)cc2)c2nccc([C@H](O)COC(C)=O)c12 [Compound 146, (S)-2-(3-(Acrylamidomethyl)-1-(4-(trifluoromethoxy)phenyl)-1H-pyrazolo[3,4-b]pyridin-4-yl)-2-hydroxyethyl acetate] |  | 2.8 |
| C=CC(=O)NCc1nn(-c2ccc(OC(F)(F)F)cc2)c2nccc([C@H](O)COP(=O)(O)O)c12 [Compound 147, (S)-2-(3-(Acrylamidomethyl)-1-(4-(trifluoromethoxy)phenyl)-1H-pyrazolo[3,4-b]pyridin-4-yl)-2-hydroxyethyl dihydrogen phosphate] |  | 50 |

— patent US12110276B2 (Genentech, Inc., priority 2021, dated 2024)
